What was measured:
[1] = target: Btk (Homo sapiens, UniProt Q06187); assay: Btk kinase activity, TR-FRET assay; assay type: biochemical; details: read-out: Btk (IC50); tested form: formic acid salt
Protocol: (§1) Btk kinase activity is determined using a time-resolved fluorescence resonance energy transfer (TR-FRET) methodology. Measurements are performed in a reaction volume of 50 μL using 96-well assay plates. Kinase enzyme, inhibitor, ATP (at the Km for the kinase), and 1 […] (Biotin-AVLESEEELYSSARQ-NH2) are incubated in a reaction buffer composed of 20 mM Tris, 50 mM NaCl, MgCl2 (5-25 mM depending on the kinase), MnCl2 (0-10 mM), 1 mM DTT, 0.1 mM EDTA, 0.01% bovine serum albumin, 0.005% Tween-20, and 10% DMSO at pH 7.4 for one hour. The reaction is quenched by the addition of 1.2 equivalents of EDTA (relative to divalent cation) in 25 μL of 1× Lance buffer (Perkin-Elmer). […] The TR-FRET signal is measured on a multimode plate reader with an excitation wavelength (λEx) of 330 nm and detection wavelengths (λEm) of 615 and 665 nm. Activity is determined by the ratio of the fluorescence at 665 nm to that at 615 nm. For each compound, enzyme activity is measured at various concentrations of compound. Negative control reactions are performed in the absence of inhibitor in replicates of six, and two no-enzyme controls are used to determine baseline fluorescence levels. […]

Chains of the proteins cited; added tags and fusions are not shown. Residues count along the entry.
UniProt Q06187, whole entry: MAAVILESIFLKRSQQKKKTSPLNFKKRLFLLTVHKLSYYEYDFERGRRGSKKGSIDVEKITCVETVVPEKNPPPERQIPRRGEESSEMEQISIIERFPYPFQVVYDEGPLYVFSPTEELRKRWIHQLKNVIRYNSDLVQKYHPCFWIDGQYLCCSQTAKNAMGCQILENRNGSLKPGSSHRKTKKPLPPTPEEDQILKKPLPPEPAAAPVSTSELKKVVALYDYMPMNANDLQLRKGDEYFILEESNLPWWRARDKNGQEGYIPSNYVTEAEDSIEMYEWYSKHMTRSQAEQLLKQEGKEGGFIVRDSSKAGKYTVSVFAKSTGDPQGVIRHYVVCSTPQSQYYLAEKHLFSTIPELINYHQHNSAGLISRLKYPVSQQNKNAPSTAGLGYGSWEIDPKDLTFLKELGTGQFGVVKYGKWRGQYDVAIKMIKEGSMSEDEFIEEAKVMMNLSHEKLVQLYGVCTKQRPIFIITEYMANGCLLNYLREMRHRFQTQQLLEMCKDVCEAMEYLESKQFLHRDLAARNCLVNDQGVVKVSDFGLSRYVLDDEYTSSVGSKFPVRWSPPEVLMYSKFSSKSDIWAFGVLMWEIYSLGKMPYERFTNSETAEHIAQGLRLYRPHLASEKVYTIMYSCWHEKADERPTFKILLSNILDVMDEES
UniProt P06239, whole entry: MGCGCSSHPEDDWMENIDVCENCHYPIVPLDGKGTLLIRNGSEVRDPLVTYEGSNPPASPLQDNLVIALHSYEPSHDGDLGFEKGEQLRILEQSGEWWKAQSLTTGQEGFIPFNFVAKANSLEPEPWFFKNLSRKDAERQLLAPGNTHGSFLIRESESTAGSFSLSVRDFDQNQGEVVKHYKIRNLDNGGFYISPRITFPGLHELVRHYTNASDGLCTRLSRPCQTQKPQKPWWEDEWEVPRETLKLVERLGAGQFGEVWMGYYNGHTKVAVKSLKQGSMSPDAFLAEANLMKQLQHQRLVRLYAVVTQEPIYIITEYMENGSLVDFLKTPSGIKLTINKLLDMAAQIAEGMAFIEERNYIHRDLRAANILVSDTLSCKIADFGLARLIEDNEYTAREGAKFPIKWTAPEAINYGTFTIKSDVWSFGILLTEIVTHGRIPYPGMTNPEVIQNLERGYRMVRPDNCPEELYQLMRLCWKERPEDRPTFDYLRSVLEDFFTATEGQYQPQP
UniProt P00533, 25-1210 limits assumed: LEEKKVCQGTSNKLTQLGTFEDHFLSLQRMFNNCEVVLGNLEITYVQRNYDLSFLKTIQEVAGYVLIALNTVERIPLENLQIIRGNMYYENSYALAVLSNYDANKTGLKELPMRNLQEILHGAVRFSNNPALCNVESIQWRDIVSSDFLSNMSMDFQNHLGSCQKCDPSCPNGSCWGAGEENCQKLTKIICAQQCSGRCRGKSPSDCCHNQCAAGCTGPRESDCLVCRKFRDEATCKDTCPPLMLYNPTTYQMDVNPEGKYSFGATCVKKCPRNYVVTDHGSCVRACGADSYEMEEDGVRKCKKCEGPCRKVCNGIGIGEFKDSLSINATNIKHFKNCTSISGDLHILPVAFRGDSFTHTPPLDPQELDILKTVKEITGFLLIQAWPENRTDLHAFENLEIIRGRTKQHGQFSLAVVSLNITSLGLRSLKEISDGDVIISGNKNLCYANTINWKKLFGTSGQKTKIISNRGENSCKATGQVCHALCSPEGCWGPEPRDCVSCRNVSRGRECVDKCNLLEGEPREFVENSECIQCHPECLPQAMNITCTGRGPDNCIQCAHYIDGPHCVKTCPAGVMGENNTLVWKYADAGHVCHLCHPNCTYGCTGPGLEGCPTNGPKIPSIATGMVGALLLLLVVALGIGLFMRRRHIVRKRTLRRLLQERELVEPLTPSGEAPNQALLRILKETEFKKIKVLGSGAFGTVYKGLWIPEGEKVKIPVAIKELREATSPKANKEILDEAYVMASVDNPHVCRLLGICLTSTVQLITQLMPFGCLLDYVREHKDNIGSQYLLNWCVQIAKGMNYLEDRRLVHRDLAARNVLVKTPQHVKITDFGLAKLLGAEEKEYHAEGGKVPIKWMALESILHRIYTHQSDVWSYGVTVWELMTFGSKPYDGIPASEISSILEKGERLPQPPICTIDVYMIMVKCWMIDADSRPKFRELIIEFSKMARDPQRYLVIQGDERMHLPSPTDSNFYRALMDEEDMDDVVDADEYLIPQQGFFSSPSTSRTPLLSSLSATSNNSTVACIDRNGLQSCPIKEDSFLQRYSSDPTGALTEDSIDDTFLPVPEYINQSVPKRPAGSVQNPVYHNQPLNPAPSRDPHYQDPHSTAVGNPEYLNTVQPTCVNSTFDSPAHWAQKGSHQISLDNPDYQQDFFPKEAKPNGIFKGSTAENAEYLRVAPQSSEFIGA
UniProt P52333, whole entry: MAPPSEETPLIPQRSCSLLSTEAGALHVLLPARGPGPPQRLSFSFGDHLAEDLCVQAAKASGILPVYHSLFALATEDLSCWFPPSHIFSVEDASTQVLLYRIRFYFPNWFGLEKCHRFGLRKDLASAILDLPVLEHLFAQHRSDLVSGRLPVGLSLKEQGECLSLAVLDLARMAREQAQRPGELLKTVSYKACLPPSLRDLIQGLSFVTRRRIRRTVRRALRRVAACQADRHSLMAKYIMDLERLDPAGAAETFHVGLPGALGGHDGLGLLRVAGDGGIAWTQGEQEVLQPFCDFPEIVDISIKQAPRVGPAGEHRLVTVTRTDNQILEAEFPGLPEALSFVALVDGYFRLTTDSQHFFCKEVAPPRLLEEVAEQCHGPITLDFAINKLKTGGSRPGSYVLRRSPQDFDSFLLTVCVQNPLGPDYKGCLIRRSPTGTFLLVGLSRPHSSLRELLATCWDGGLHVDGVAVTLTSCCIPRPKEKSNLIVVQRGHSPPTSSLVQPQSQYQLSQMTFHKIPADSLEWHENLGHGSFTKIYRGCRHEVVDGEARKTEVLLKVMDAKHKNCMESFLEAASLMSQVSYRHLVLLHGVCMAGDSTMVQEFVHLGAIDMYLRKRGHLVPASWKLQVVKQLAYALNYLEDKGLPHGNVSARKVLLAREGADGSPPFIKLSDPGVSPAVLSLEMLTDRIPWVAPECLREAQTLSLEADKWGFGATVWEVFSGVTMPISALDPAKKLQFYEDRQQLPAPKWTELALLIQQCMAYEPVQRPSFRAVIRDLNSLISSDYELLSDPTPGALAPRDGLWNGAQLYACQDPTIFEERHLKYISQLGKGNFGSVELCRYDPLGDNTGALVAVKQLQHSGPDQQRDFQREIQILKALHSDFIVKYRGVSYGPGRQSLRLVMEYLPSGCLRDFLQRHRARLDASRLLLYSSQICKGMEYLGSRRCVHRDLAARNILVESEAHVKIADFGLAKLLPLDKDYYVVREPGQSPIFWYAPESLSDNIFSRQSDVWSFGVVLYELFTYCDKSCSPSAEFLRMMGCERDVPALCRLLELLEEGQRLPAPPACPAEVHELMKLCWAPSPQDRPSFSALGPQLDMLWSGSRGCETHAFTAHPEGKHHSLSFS

[2] = target: Lck (Homo sapiens, UniProt P06239); assay: Lck kinase activity, TR-FRET assay; assay type: biochemical; details: read-out: LCK (IC50); tested form: formic acid salt
Protocol: as §1

[3] = target: EGFR (Homo sapiens, UniProt P00533); assay: Inhibition of a panel of kinases, in vitro HotSpot kinase assay: EGFR; details: read-out: EGFR (IC50); tested form: formic acid salt
Protocol: (§2) The degree of inhibition of a panel of kinases is determined using the in vitro HotSpot kinase assay (purified enzymes, ^33P-ATP, an appropriate substrate and 1 uM ATP).

[4] = target: JAK3 (Homo sapiens, UniProt P52333); assay: Inhibition of a panel of kinases, in vitro HotSpot kinase assay: JAK3; details: read-out: JAK3 (IC50); tested form: formic acid salt
Protocol: as §2

Measured: IC50

CC#CC(=O)N1CCC[C@@H](Nc2n[nH]c3nccc(Nc4cccc(C(=O)Nc5ccc(C(C)C)c(C)c5)c4)c23)C1
100 to 1000 nM: all assays above

Source: patent US9580416B2, “Inhibitors of Bruton's tyrosine kinase” (PHARMACYCLICS LLC, priority 2014, dated 2017)
